Experimental data: patent US20160030407A1, “Method of Treating Inflammatory Lung Disease” (priority 2010, published 2016)

Chains of the proteins cited; added tags and fusions are not shown. Residues count along the entry.
UniProt P30926, 22-498: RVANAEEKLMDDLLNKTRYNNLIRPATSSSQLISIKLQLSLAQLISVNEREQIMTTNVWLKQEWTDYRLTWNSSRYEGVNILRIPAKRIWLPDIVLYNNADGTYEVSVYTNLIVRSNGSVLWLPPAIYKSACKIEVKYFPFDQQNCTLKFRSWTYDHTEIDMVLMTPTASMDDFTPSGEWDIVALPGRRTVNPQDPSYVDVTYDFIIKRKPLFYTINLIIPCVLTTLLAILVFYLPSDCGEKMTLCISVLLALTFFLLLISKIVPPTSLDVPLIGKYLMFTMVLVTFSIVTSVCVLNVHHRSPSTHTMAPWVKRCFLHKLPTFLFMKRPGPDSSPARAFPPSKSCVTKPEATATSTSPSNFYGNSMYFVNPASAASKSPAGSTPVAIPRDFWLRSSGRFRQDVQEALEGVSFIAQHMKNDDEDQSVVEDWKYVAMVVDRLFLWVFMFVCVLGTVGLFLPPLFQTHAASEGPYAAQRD
UniProt P32297, 32-505: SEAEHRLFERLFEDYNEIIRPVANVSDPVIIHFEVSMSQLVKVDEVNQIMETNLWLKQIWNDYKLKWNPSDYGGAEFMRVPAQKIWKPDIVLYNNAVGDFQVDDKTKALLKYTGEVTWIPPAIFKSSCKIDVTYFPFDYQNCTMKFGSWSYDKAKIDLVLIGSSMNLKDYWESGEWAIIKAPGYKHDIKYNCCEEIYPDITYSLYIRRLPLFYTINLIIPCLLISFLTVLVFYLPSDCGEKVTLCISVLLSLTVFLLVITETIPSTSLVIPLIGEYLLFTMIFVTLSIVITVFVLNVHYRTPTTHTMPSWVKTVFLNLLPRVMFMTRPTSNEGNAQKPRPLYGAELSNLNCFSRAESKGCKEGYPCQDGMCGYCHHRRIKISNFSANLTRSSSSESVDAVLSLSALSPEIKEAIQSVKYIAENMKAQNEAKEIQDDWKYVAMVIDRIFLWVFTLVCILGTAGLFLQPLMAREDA
UniProt P17787, 26-502: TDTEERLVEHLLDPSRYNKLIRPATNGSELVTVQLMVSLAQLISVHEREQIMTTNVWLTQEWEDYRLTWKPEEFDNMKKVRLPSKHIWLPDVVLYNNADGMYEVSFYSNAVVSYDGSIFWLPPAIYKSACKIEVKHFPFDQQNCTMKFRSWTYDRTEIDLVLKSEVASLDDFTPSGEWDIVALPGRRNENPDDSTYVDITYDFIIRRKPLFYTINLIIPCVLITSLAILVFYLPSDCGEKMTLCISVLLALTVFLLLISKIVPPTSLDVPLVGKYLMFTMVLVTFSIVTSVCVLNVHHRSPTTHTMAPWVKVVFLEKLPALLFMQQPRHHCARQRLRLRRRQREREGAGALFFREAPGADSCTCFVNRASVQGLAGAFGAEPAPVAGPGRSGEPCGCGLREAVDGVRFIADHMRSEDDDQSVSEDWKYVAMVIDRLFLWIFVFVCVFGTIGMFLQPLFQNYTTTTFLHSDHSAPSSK
UniProt P43681, 29-627: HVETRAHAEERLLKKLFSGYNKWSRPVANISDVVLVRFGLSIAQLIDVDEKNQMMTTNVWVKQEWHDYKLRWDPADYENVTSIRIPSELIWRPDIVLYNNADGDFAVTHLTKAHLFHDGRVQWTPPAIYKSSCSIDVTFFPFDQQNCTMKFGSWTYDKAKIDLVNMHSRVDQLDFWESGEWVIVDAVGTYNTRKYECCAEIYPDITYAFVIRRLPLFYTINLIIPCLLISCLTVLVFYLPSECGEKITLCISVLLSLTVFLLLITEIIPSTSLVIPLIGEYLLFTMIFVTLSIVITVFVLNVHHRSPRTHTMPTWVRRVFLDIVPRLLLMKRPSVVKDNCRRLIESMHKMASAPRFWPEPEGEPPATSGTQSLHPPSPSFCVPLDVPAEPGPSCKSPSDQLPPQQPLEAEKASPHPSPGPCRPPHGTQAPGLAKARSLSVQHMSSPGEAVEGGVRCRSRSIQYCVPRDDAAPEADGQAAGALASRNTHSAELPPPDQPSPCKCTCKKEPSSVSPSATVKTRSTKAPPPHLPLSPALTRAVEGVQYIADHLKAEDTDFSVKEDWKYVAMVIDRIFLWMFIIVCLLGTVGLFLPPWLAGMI
UniProt P36544, 23-502: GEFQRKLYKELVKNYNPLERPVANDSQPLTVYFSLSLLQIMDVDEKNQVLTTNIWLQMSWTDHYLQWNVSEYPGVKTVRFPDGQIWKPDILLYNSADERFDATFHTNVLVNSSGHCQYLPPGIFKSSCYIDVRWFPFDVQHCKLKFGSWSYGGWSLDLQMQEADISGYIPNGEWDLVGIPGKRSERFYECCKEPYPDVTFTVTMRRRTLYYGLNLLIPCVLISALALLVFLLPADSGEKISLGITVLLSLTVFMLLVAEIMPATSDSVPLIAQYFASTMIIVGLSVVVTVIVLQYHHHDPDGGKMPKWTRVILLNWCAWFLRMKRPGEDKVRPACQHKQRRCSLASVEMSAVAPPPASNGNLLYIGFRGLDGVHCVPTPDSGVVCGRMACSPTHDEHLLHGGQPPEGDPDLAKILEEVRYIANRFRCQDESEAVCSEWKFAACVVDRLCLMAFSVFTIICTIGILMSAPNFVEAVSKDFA

Legend:
[1] = Single i.v. dose toxicity: coagulation (aPTT, PT); format: in vivo, Sprague-Dawley rats; details: nicotine 0.75 mg/kg single i.v. dose; male rats; individual animals E1, E2, E3, E5; tartrate
Description: On day 15, urine was collected on all surviving animals for urinalysis. The animals were euthanized and bled via cardiac puncture. Blood was collected for hematology, clinical chemistry, and coagulation analysis. Tissues were collected, weighed, and stored in 10% neutral-buffered formalin for possible future analysis.

nAChR α3/β4 [2] = target: T1, nAChR α3/β4 (Homo sapiens, UniProt P30926+P32297); assay: nAChR α3/β4 channel agonist assay (FLIPR); format: cell-based; details: 100% = 30 μM Ach, 0% = HBPS
Experimental: (§1) Briefly, cells were incubated with […] dye for 30 min at 37° C.

nAChR α3/β4 [3] = target: T1, nAChR α3/β4; format: cell-based; details: with 10 μM Ach, 100% = 10 μM Ach+1 μM epibatidine, 0% = 10 μM Ach
Experimental: as §1

nAChR α3/β4 [4] = target: T1, nAChR α3/β4; assay: cell-based; details: read-out: Normalized % Inhibition
Experimental: as §1

nAChR α4/β2 [5] = target: T2, nAChR α4/β2 (Homo sapiens, UniProt P17787+P43681); assay: cell-based; details: read-out: Normalized % Inhibition
T2 construct: host or cells: HEK293 cells, transient
Experimental: as §1

nAChR α4/β2 [6] = target: T2, nAChR α4/β2; assay: nAChR α4/β2 channel agonist assay (FLIPR); format: cell-based; details: 100% = 30 μM Ach, 0% = HBPS
Experimental: as §1

nAChR α7 [7] = target: T3, nAChR α7 (Homo sapiens, UniProt P36544); assay: nAChR α7 channel agonist assay (FLIPR); format: cell-based; details: in presence of PNU-120596, 100% = 30 μM Ach+10 μM PNU-120596, 0% = HBPS
T3 construct: host or cells: CHO cells coexpressing RIC-3
Experimental: as §1
In the absence of PNU-120596, the nAChR α7 receptor became desensitized very quickly before any agonist effect of Ach could be observed. Therefore, the assay of agonist activity for either Ach or for the test articles was conducted in the presence of the positive allosteric modulator.

nAChR α7 [8] = target: T3, nAChR α7; assay: nAChR α7 channel positive allosteric modulator assay (FLIPR); format: cell-based; details: with 30 μM Ach, 100% = 30 μM Ach+10 μM PNU-120596, 0% = 30 μM Ach, read-out: Normalized % Potentiation
Experimental: as §1
Neither test article potentiated the activity of the nAChR α7 receptor.

nAChR α7 [9] = target: T3, nAChR α7; assay: nAChR α7 channel antagonist assay (FLIPR); format: cell-based; details: with 300 μM Ach+10 μM PNU-120596, control antagonist 10 μM MLA, read-out: Normalized % Inhibition
Experimental: as §1
Inhibition was not concentration-dependent and the IC50s could not be determined for either test article.

For CN1CCCC1c1cccnc1.O=C(O)C(O)C(O)C(=O)O (single isomer, unassigned; (-)) [Nicotine, (−) Nicotine hydrogen tartrate], the “P[…]” value [1] was 13 s, the “Normalized % Activation” value (nAChR α3/β4 [2]; test conc 0.3 μM) was 0.94% and the “Normalized % Activation” value (nAChR α3/β4 [2]; test conc 1 μM) was −1.28%. The “Normalized % Activation” value (nAChR α3/β4 [2]; test conc 3 μM) was 1.11%, the “Normalized % Activation” value (nAChR α3/β4 [2]; test conc 10 μM) was 38.17% and the “Normalized % Activation” value (nAChR α3/β4 [2]; test conc 30 μM) was 122.59%. For the same compound, the “Normalized % Activation” value (nAChR α3/β4 [2]; test conc 100 μM) was 201.50%, the “Normalized % Activation” value (nAChR α3/β4 [2]; test conc 300 μM) was 264.77% and the “Normalized % Activation” value (nAChR α3/β4 [2]; test conc 1000 μM) was 208.23%. The “Normalized % Potentiation” value (nAChR α3/β4 [3]; test conc 0.3 μM) was −1.23%, the “Normalized % Potentiation” value (nAChR α3/β4 [3]; test conc 1 μM) was −1.19% and the “Normalized % Potentiation” value (nAChR α3/β4 [3]; test conc 3 μM) was −3.92%. The “Normalized % Potentiation” value (nAChR α3/β4 [3]; test conc 10 μM) was −5.67%, the “Normalized % Potentiation” value (nAChR α3/β4 [3]; test conc 30 μM) was −9.28% and the “Normalized % Potentiation” value (nAChR α3/β4 [3]; test conc 100 μM) was −9.72%. The “Normalized % Potentiation” value (nAChR α3/β4 [3]; test conc 300 μM) was −8.45%, the “Normalized % Potentiation” value (nAChR α3/β4 [3]; test conc 1000 μM) was −9.57% and the inhibition at 3 µM (nAChR α3/β4 [4]) was 37.8%. The inhibition at 0.3 µM (nAChR α4/β2 [5]) was 85.9%, the inhibition at 3 µM (nAChR α4/β2 [5]) was 85.7% and the inhibition at 10 µM (nAChR α4/β2 [5]) was 109%. The inhibition at 30 µM (nAChR α4/β2 [5]) was 107%, the inhibition at 100 µM (nAChR α4/β2 [5]) was 91.9% and the inhibition at 300 µM (nAChR α4/β2 [5]) was 95.3%. For the same compound, the inhibition at 1000 µM (nAChR α4/β2 [5]) was 108%, the “Normalized % Activation” value (nAChR α4/β2 [6]; test conc 0.3 μM) was 16.27% and the “Normalized % Activation” value (nAChR α4/β2 [6]; test conc 1 μM) was 34.05%. For the same compound, the “Normalized % Activation” value (nAChR α4/β2 [6]; test conc 3 μM) was 61.88%, the “Normalized % Activation” value (nAChR α4/β2 [6]; test conc 10 μM) was 74.31% and the “Normalized % Activation” value (nAChR α4/β2 [6]; test conc 30 μM) was 75.53%. The “Normalized % Activation” value (nAChR α4/β2 [6]; test conc 100 μM) was 71.02%, the “Normalized % Activation” value (nAChR α4/β2 [6]; test conc 300 μM) was 58.23% and the “Normalized % Activation” value (nAChR α4/β2 [6]; test conc 1000 μM) was 57.05%. The “Normalized % Activation” value (nAChR α7 [7]; test conc 0.3 μm) was −1.03%, the “Normalized % Activation” value (nAChR α7 [7]; test conc 1 μm) was 0.15% and the “Normalized % Activation” value (nAChR α7 [7]; test conc 3 μm) was 0.72%. The “Normalized % Activation” value (nAChR α7 [7]; test conc 10 μm) was 2.44%, the “Normalized % Activation” value (nAChR α7 [7]; test conc 30 μm) was 5.19% and the “Normalized % Activation” value (nAChR α7 [7]; test conc 100 μm) was 11.60%. For the same compound, the “Normalized % Activation” value (nAChR α7 [7]; test conc 300 μm) was 27.93%, the “Normalized % Activation” value (nAChR α7 [7]; test conc 1000 μm) was 48.47% and the activation at 0.3 µM (nAChR α7 [8]; test conc 0.3 μm) was -0.95%. For the same compound, the activation at 1 µM (nAChR α7 [8]; test conc 1 μm) was -1.03%, the activation at 3 µM (nAChR α7 [8]; test conc 3 μm) was -0.81% and the activation at 10 µM (nAChR α7 [8]; test conc 10 μm) was -0.61%. The activation at 30 µM (nAChR α7 [8]; test conc 30 μm) was -0.47%, the activation at 100 µM (nAChR α7 [8]; test conc 100 μm) was -0.46% and the activation at 300 µM (nAChR α7 [8]; test conc 300 μm) was -0.34%. For the same compound, the activation at 1000 µM (nAChR α7 [8]; test conc 1000 μm) was -0.51%, the inhibition at 0.3 µM (nAChR α7 [9]; test conc 0.3 μm) was 2.78% and the inhibition at 1 µM (nAChR α7 [9]; test conc 1 μm) was 11.8%. The inhibition at 3 µM (nAChR α7 [9]; test conc 3 μm) was 41.2%, the inhibition at 10 µM (nAChR α7 [9]; test conc 10 μm) was 32.5% and the inhibition at 30 µM (nAChR α7 [9]; test conc 30 μm) was 39.2%. It also gave an inhibition at 100 µM (nAChR α7 [9]; test conc 100 μm) of 18.6%, an inhibition at 300 µM (nAChR α7 [9]; test conc 300 μm) of 14.1% and an inhibition at 1000 µM (nAChR α7 [9]; test conc 1000 μm) of -37%.

Where two headings read alike, the source gives them in different places.
